This experiment concerns MC3T3 cells. Put plainly: Bone formation study, alkaline phosphatase (ALP) assay. Format: cell-based, murine. Particulars: 30 ng/ml; 14 days. From the text: The many and varied osteoblast culture systems that have been developed include cultures containing osteoblast or osteoblast-like cells from different species, bones of different ages, and a variety of anatomical sites and pathological states. Systems have also been developed for specific cell populations, such as osteoprogenitor cells and osteocytes. Several recent articles have also discussed various osteoblast cell culture models and provide some critical commentaries about their use (Marie, 1994; Rodan et al. 1994; Gundle & Beresford, 1995, Parfitt, 1995; Roby, 1995). In the present invention MC3T3 cell line was used. These cells are murine osteogenic mesenchymal precursor cells, which can be differentiated into osteoblasts by ascorbic acid and beta-glycerol phosphate.
MC3T3 cell lines were used for the bone formation studies. These cells are murine osteogenic mesenchymal precursor cells, which can be differentiated into osteoclasts by ascorbic acid and beta-glycerol phosphate.
The osteoblasts (MC3T3 cells) were seeded at a density of 75000 cells per well in 24 plates. The cells were culture for one day before the plant extracts were added. […]
At the end of the culture period, osteoblast bone formation was evaluated by alkaline phosphatase assay (ALP assay) FIG. 7 and the proliferation by Alamar Blue assay (FIG. 8)

B1: BMP-2: bone morphogenic protein-2, positive control that induces the differentiation of the osteoblasts (protein, UniProt P12643 283-396, looked up)
Bone morphogenetic protein 2: QAKHKQRKRLKSSCKRHPLYVDFSDVGWNDWIVAPPGYHAFYCHGECPFPLADHLNSTNHAIVQTLVNSVNSKIPKACCVPTELSAISMLYLDENEKVVLKNYQDMVVEGCGCR
As for B1, the “ALP activity compared to the negative control (without AA and bG)” value is “induced”.

Source of the values: US20090317501A1, “Pinus Pinea Plant Extracts For Treating Osteoporosis and the Extraction Process Thereof” (priority 2006, published 2009).
